This is an account of results in US10450306B2, “Isoxazole analogs as FXR agonists and methods of use thereof” (Enanta Pharmaceuticals, Inc., priority 2016, dated 2019).

Sequences of proteins named here, by UniProt entry; tags and fusion partners are left off.
UniProt Q96RI1, whole entry: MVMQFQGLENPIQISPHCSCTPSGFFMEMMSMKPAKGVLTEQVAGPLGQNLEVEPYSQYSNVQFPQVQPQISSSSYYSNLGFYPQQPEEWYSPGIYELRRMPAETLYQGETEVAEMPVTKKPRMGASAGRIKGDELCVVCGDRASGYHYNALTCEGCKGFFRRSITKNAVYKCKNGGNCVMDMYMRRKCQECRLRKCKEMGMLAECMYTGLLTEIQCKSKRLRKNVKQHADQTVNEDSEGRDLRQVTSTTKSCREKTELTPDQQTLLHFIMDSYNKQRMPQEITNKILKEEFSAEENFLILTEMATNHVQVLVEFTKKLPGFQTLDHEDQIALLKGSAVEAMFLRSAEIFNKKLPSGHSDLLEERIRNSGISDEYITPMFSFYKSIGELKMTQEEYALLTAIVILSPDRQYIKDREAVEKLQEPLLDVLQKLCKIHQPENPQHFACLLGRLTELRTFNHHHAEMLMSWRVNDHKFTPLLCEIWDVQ

For this assay, the target named is human FXR (NR1H4) (Homo sapiens, UniProt Q96RI1). In words: Human FXR (NR1H4) Assay: Gal4 promoter driven luciferase reporter transactivation in CHO cells (Indigo Bioscience kit IB00601). The format is cell-based. As to conditions: for EC50: Human FXR (NR1H4) reporter assay, potency ranges; for Efficacy (%): efficacy normalized to CDCA set as 100%. Background: In a reporter assay the amount or activity of a reporter protein is the signal.

Consider `CN(Cc1c(-c2c(Cl)cccc2Cl)noc1C1CC1)C1CCN(c2nc3ccc(C(=O)NS(=O)(=O)N(C)C)cc3s2)CC1`, for which the concentration giving a half-maximal response (EC50) (commonly the concentration at which the effect is half-maximal) is over 1000 nM and the “Efficacy (%)” value was found to be 98%.

On to `CN(Cc1c(-c2c(Cl)cccc2Cl)noc1C1CC1)C1CCN(c2nc3ccc(C(=O)NS(=O)(=O)c4ccc(C(C)(C)C)cc4)cc3s2)CC1`, for which the EC50 lay in the range of 100 to 1000 nM and the “Efficacy (%)” value stood at 114%.
